Compound activity from PubChem BioAssay.
miR-21 reporter: raises the signal of a miR-21 reporter | HeLa miR-21 FLuc reporter, luciferase, 48 h | Potency, µM (highest dose often 38.3 µM), for inactives: at the highest dose reporter change, positive = more light | 340,000 tested, under 10 active | AID 2288; active = well fitted rising curve with a large enough effect; inconclusive = small, poorly fitted or top-dose-only effect; inactive = no such curve, though single readings can be large or run the other way;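 also: % of control where 0% means no effect; miR-21 action dims this reporter so a rising signal means less miR-21 action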
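Compounds were titrated across several concentrations (up to approximately 40 uM) and incubated 48 hours with HeLa miR-21-FLuc reporter cells (miR-21 target sequence downstream of FLuc, endogenous miR-21). Readout was firefly luciferase luminescence after lytic detection reagent.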
ALDH1A1 block: blocks purified human ALDH1A1 activity; AID 1030; P00352; Purified ALDH1A1, NADH fluorescence, propionaldehyde substrate; Potency, µM (series often up to 75.3 µM), without a hit: at the top dose activity, negative = inhibition, usual class: inhibitors; 220,000 compounds, 7.3% hits; active means well fitted inhibition curve with a large enough effect, not every such curve was filed as active; inconclusive means small, poorly fitted or top-dose-only effect, or another doubt; inactive means no such curve, though single readings can be large or run the other way;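 further: potency means the concentration at half of the fitted maximal effect; plate controls were no enzyme wells and a reference inhibitor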
G9a inh: inhibitors of human histone lysine methyltransferase G9a; 350,000 compounds, 8.8% hits; Potency, µM (highest dose often 102 µM), inactives show at the highest dose activity, negative = inhibition, most hits filed as inhibitors; G9a H3K9 monomethylation, AlphaScreen, 2 h; further: potency means the concentration at half of the fitted maximal effect; on the % scale 0 is the no-effect control and ±100 the full control effect; nearly all actives have a fitted effect of over 75% in size
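Using a bead-based AlphaScreen, monomethylated H3K9 product from 2 h room-temperature reactions (G9a 20 nM, peptide 500 nM, SAM 20 uM) was detected with 0.5 ug/mL rabbit anti-H3K9me1 antibody.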
Sfp PPTase inh: qHTS Assay for Inhibitors of Bacillus subtilis Sfp phosphopantetheinyl transferase (PPTase). 310,000 compounds, 3.5% hits. 4'-phosphopantetheinyl transferase ffp (Bacillus subtilis), Q9F4F7. Biochemical Sfp PPTase activity, qHTS. Potency, µM, inactives show max response, negative = inhibition, usual class: inhibitors; active = well fitted inhibition curve with a large enough effect; inconclusive = small, poorly fitted or top-dose-only effect, or another doubt; inactive = no such curve, though single readings can be large or run the other way;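 note: the enzyme is Sfp with the accession as filed and its product quenches rhodamine fluorescence; potency is the fitted concentration of half-maximal effect; 0% = enzyme reaction without inhibitor and -100% = no enzyme wells; top concentration of the series not given in the record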
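Step 1, compound plus 15 nM Sfp-PPTase, 15 min, room temperature. Step 2, add rhodamine-CoA (5 uM) and BHQ-2-YbbR (12.5 uM). Step 3, read 525/598 nm fluorescence at 0 and 30 min.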
KDM4E inh: inhibitors of human JMJD2E histone demethylase. B2RXH2. Potency, µM (titrated, usually from 57.1 µM), inactives show at the top dose activity change, negative = inhibition, usual class: inhibitors. AID 2147. JMJD2E catalytic domain, FDH-coupled NADH fluorescence (FDH is formaldehyde dehydrogenase). 230,000 compounds, 1.6% hits; active means well fitted inhibition curve with a large enough effect, not every such curve was filed as active; inconclusive means small, poorly fitted or top-dose-only effect, or another doubt; inactive means no such curve, though single readings can be large or run the other way;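 further: potency means the concentration at half of the fitted maximal effect; 0% = wells with enzyme and -100% = buffer wells without enzyme; nearly all actives have a fitted effect of over 50% in size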
Lamin A splicing: modulators of lamin A splicing | AID 1487 | HeLa LMNA splicing GFP/RFP minigene ratio, 48 h | Potency, µM (top dose mostly 46.1 µM), for inactives: at the top dose ratio change, negative = inhibition, usual class: inhibitors | 200,000 compounds, 0.01% hits; active means well fitted inhibition curve with a large enough effect in the signal ratio, with a control signal flat, not every such curve was filed as active; inconclusive means small, poorly fitted or top-dose-only effect, or effect the other way, or a change in a side signal; the % refers to the signal ratio; further: potency means the concentration at half of the fitted maximal effect; on the % scale 0 is the no-effect control and ±100 the full control effect
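Read-out is the ratio of GFP to DsRed2 object intensity, acquired by 488 nm laser-scanning cytometry on HeLa lamin A-EGFP minigene reporter cells. Compound incubation 48 hrs at 37 °C in Opti-MEM with 2% FBS; DMSO 0.5% final.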
The depositor's hits bear a star; ? = inconclusive; / = not tested or not shown; [ ] = dose if it differs, or a comment. The list is not random: actives were taken first. Their share in the collection is about 13%. Unless noted, the call rests on the fitted dose curve; in most records, active means well fitted curve in the direction sought with a large enough effect; inconclusive means small, poorly fitted or top-dose-only effect, or another doubt; inactive means no such curve, though single readings can be large; an effect the other way counts as inactive or inconclusive.

miR-21 reporter | ALDH1A1 block | G9a inh | Sfp PPTase inh | smiles | KDM4E inh | Lamin A splicing
-36% | / | 6%[59 µM] | / | Cc1cccc(NC(=O)c2ccc3snnc3c2)c1 | / | /
/ | -2% | / | 1% | COC(=O)c1ccc(C(NC(=O)OCc2ccccc2)/C(=C/[C@@H](C)C(=O)NC2CCCCC2)c2cccnc2)cc1 (stereo partly drawn) | -5% | /
/ | 5% | -5%[12.7 µM] | 11% | O=C(c1cc(C(F)(F)F)cc(C(F)(F)F)c1)N1CCC2(CC1)CCN(c1ncccn1)CC2 | / | /
1% | 20µM* | -33%[59 µM] | 4% | Cc1ccc2[nH]c(=O)c(CN(Cc3ccc4c(c3)OCO4)Cc3nnnn3C3CCCC3)cc2c1 | ? | ?
0% | ? | ? | ? | COc1ccc2cc(CN(CCCN3CCOCC3)Cc3nnnn3C3CCCC3)c(=O)[nH]c2c1 | ? | 8%
-3% | / | 15% | 8% | Cc1ccc2[nH]c(=O)c(CN(Cc3cccnc3)Cc3nnnn3CC3CCCO3)cc2c1 (stereo not drawn) | ? | /
-3% | 22µM* | -8%[59 µM] | 0% | Cc1cc2cc(CN(Cc3ccc4c(c3)OCO4)Cc3nnnn3C3CCCC3)c(=O)[nH]c2cc1C | -14% | 2%
-10% | ? | 16µM* | ? | O=c1[nH]c2cc3c(cc2cc1CN(CCc1ccccc1)Cc1nnnn1C1CCCC1)OCCO3 | ? | 1%
0% | / | / | -1% | COc1ccc(NC(=O)NNS(=O)(=O)c2ccc(OC)c(OC)c2)c(OC)c1 | / | /
/ | / | 5%[59 µM] | / | CN(CC(=O)Nc1ccccc1C(F)(F)F)C(=O)c1ccccc1Sc1ccccc1C#N | / | /
-5% | 4% | -6%[0.501 µM] | -7% | COc1ccc(C(=O)C2CCCN(Cc3cn[nH]c3-c3ccccc3)C2)cc1OC (stereo not drawn) | ? | /
-4% | 4% | 45µM* | 30% | COc1ccc(-c2[nH]ncc2CN2CCCC(C(=O)c3cccc(OC)c3)C2)cc1 (stereo not drawn) | 1% | 20%[46 µM]
2% | / | 10µM* | -15% | COc1cccc(CN2CCCC(C(=O)N3CCCCC3)C2)c1 (stereo not drawn) | / | /
1% | ? | 13µM* | ? | O=C(C1CCCN(Cc2ccncc2)C1)N1CCc2ccccc2C1 (stereo not drawn) | -4% | 4%
1% | 2% | 3% | 71µM* | COc1cccc(O)c1CN1CCCC(C(=O)c2cccc(C(F)(F)F)c2)C1 (stereo not drawn) | 10% | /

Remaining list, next part
miR-21 reporter | ALDH1A1 block | G9a inh | Sfp PPTase inh | smiles | KDM4E inh | Lamin A splicing
-10% | / | 7% | 6% | O=C(NCCCN1CCCC1=O)Nc1ccc([N+](=O)[O-])cc1 | / | /
-1% | -8% | 13µM* | -19% | Cc1cccc(CN2CCCC(C(=O)N3CCc4ccccc4C3)C2)c1 (stereo not drawn) | -11% | 4%
-1% | ? | 32µM* | -14% | COc1cc(CN2CCCC(C(=O)c3ccc4c5c(cccc35)CC4)C2)cc(OC)c1O (stereo not drawn) | -24% | ?
1% | / | 23%[0.501 µM] | -24% | Cc1cccc(CN2CCN(C(=O)c3cccc4ccccc34)CC2)c1 | / | /
? | 0.32µM* | ? | 3% | Cc1cccc(CN2CCN(C(=O)CCl)CC2)c1 | -1% | ?
-1% | / | ? | ? | O=C(C1CCCN(Cc2cccc(Cl)c2)C1)N1CCCCC1 (stereo not drawn) | / | /
-5% | / | 25µM* | ? | Cc1cccc(CN2CCCC(C(=O)N3CCCCC3)C2)c1 (stereo not drawn) | / | /
-43% | / | 10%[59 µM] | / | COc1ccc(-c2nnc(SCC(=O)Nc3cccc(C(F)(F)F)c3)s2)cc1 | / | -2%[46 µM]
2% | / | 7%[59 µM] | / | COc1ccccc1CNC(=O)c1cc(S(=O)(=O)N2CCCC(C)C2)cn1C (stereo not drawn) | / | -8%[46 µM]
-31% | / | 5%[59 µM] | / | Cc1ccc(C)c(N2CCN(C(=O)c3ccc(NC(=O)c4nsc5ccccc45)cc3)CC2)c1 | / | ?
-1% | / | 3%[12.7 µM] | -5% | Cc1ccccc1NC(=S)N/N=C/c1ccc(O)cc1O | 14µM* | /
2% | 2% | -7%[59 µM] | 7% | Cc1ccccc1NC(=S)NCc1ccccc1 | ? | 7%
8% | ? | 22µM* | -13% | Cc1ccccc1NC(=S)N/N=C/C(C)c1ccccc1 (stereo not drawn) | -8% | 0%[46 µM]
-10% | 13µM* | -9% | ? | Cc1cccc(NC(=S)NC(=O)CCc2ccccc2)c1C | -5% | 12%
27% | / | 1% | 6% | Cc1cccc(NC(=S)N/N=C/c2cccc(O)c2)c1C | 7% | /

Other records follow:
miR-21 reporter | ALDH1A1 block | G9a inh | Sfp PPTase inh | smiles | KDM4E inh | Lamin A splicing
1% | ? | ? | 79µM* | Cc1cccc(NC(=S)N/N=C/C(C)c2ccccc2)c1C (stereo not drawn) | -9% | -16%[46 µM]
/ | ? | / | 0% | Cc1nc(NC2CCCCC2)c2nc(-c3ccccc3)n(CCCN(C)C)c2n1 | ? | /
-3% | / | -37%[59 µM] | / | Cc1ccc2c(c1)C(=O)OC(C(=O)Nc1ccc(C(=O)O)cc1)C2 (stereo not drawn) | / | /
0% | / | 4% | 16% | CC(C)=CCN1CCN(Cc2c[nH]c3ccccc23)CC1CCO (stereo not drawn) | / | /
/ | / | -12%[59 µM] | / | O=C(CN1CCN(C(=O)c2ccc(-c3nc4ccccc4s3)o2)CC1)Nc1ccc(F)cc1 | / | /
-1% | / | / | 21% | COc1ccc(OC)c(C(=O)N2CCCC(Nc3ccc(F)cc3)C2)c1 (stereo not drawn) | / | /
/ | / | / | 8% | Cc1noc(C)c1-c1ccc2ncnc(NCc3cc(F)cc(F)c3)c2c1 | / | /
/ | 16% | -41%[0.501 µM] | -16% | Cc1noc(C)c1-c1ccc2ncnc(NCCN3CCOCC3)c2c1 | / | 10µM*
/ | / | 13µM* | / | O=C1CCCN1c1ccc(C(=O)N(Cc2nnc(-c3ccccc3Cl)o2)C2CC2)cc1 | / | /
/ | / | -11% | / | O=C(c1ccc(Cl)c(S(=O)(=O)N2CCOCC2)c1)N(Cc1nnc(-c2ccccc2Cl)o1)C1CC1 | / | /
/ | / | 50µM* | / | O=C(c1cccc(S(=O)(=O)N2CCOCC2)c1)N(Cc1nnc(-c2ccccc2Cl)o1)C1CC1 | / | /
-1% | / | 5%[59 µM] | / | NC(=O)CSc1ncc2c(n1)-c1ccccc1N(Cc1cccc(F)c1)S2(=O)=O | / | /
2% | -6% | 32µM* | 22% | Cn1c(O)c(N=NC(=S)Nc2ccccc2F)c2cc(S(=O)(=O)N3CCOCC3)ccc21 | 7% | /
11% | 10µM* | ? | 1% | C=CCn1c(O)c(N=NC(=S)Nc2ccccc2C)c2cc(S(=O)(=O)N3CCOCC3)ccc21 | -1% | ?
-2% | 9% | 79µM* | 4% | COc1ccc(C(CC(=O)O)NC(=O)COc2ccccc2)cc1OC (stereo not drawn) | 3% | 20%

In a second layout: entries from further up.
miR-21 reporter	ALDH1A1 block	G9a inh	Sfp PPTase inh	KDM4E inh	Lamin A splicing	molecule
-3%	22µM*	-8%[59 µM]	0%	-14%	2%	Cc1cc2cc(CN(Cc3ccc4c(c3)OCO4)Cc3nnnn3C3CCCC3)c(=O)[nH]c2cc1C
-10%	?	16µM*	?	?	1%	O=c1[nH]c2cc3c(cc2cc1CN(CCc1ccccc1)Cc1nnnn1C1CCCC1)OCCO3
0%	/	/	-1%	/	/	COc1ccc(NC(=O)NNS(=O)(=O)c2ccc(OC)c(OC)c2)c(OC)c1
/	/	5%[59 µM]	/	/	/	CN(CC(=O)Nc1ccccc1C(F)(F)F)C(=O)c1ccccc1Sc1ccccc1C#N
-5%	4%	-6%[0.501 µM]	-7%	?	/	COc1ccc(C(=O)C2CCCN(Cc3cn[nH]c3-c3ccccc3)C2)cc1OC (stereo not drawn)
